Earlier results in patent EP0936918B1, “COMBINATION THERAPY FOR TREATMENT OF ARTHRITIC DISEASES” (BRITISH BIOTECH PHARMACEUTICALS LIMITED, priority 1996, dated 1998).

Conditions: results in animals, Hiestand et al. 1985; cited from earlier work

Substance: cyclosporin G
- nephrotoxicity relative to CyA: less nephrotoxicity
